Molecular target: T1, 17-beta-hydroxysteroid dehydrogenase type 3 (Rattus norvegicus) (UniProt O54939)
T1 sequence (whole entry): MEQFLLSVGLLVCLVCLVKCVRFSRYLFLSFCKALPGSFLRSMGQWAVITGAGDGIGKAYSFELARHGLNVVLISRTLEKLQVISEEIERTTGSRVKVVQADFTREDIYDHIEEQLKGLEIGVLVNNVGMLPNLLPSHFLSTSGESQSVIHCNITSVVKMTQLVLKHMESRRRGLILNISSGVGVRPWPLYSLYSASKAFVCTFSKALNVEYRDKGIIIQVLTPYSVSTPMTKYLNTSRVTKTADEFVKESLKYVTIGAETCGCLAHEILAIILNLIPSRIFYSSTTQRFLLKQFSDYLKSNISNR
Assay: Inhibition of 17beta-HSD3 in rat testes microsomal fraction using [14C]-4-androstene-3,17-dione as substrate assessed as testosterone formation at 1 uM after 2 hrs by thin layer chromatography
Format: microsomes
Settings: Testis
Method in brief: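 Rat testis microsomes supplying 17β-HSD3, converting [14C]-4-androstene-3,17-dione (50 nM) into testosterone. Inhibition of this transformation is measured at a fixed inhibitor concentration and expressed as mean ± SD of triplicate.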

- inhibition: 92.1%
Structure (SMILES): CC1CN(S(=O)(=O)c2ccccc2C(F)(F)F)C(C)CN1C[C@@]1(O)CC[C@@]2(C)[C@@H](CC[C@@H]3[C@@H]2CC[C@]2(C)C(=O)CC[C@@H]32)C1 (stereo partly specified)

From ChEMBL document CHEMBL3085755, “Synthesis of 3-spiromorpholinone androsterone derivatives as inhibitors of 17β-hydroxysteroid dehydrogenase type 3” (Bioorg Med Chem Lett, 2013)
